Target: NTR1 (Homo sapiens, UniProt P30989)
Experiment: NTR1 high-content imaging (HCS) dose response, NTR1-U2OS cells
Format: cell-based
Design: host or cells: U2OS osteosarcoma
Conditions: n = 4 unless otherwise noted; read-out: HCS NTR1 Potency Emax
Text: The cell lines utilized in the high-content imaging assays, which include the NTR1-, NTR2-, and GPR35-U2OS osteosarcomas, were obtained from the laboratory of Dr. Lawrence Barak at the Duke University Medical Center. The media used in the culture of the cell lines, as well as the assays themselves, consisted of Minimum Essential Medium (15-010-CM) and L-glutamine (25-005-CL) from Cellgro/Mediatech (Manassas, Va.), fetal bovine serum (SH30396.03) from Hyclone (Logan, Utah), penicillin-streptomycin solution (PS-20) from Omega Scientific in Tarzana, Calif., G418 (ant-gn-1) from Invivogen (San Diego, Calif.), and zeocin (R250-01) from Invitrogen (Carlsbad, Calif.). Cell lines were cultured in T225 tissue culture flasks (431082) supplied by Corning (Corning, N.Y.). Additional reagents employed include Dulbecco's Phosphate-Buffered Saline (DPBS) (21-031CV) from Cellgro/Mediatech, Trypsin-EDTA 0.05% (25300) from Invitrogen, paraformaldehyde (30528954) from Acros Organics (Geel, Belgium), Hoechst 33342 (H3570) from Invitrogen. The high-content assays were run in 1536-well plates (29326) supplied by Aurora Biotechnology (Poway, Calif.) and utilized aluminum plate seals (T592100) from E&K Scientific (Santa Clara, Calif.).
The neurotensin 1 peptide (N6383) from Sigma-Aldrich (St. Louis, Mo.) was used as a positive control in the NTR1 primary HCS assay. […]

Amino acid sequences for entries named in this document (tags omitted).
UniProt P30989, whole entry, species assumed: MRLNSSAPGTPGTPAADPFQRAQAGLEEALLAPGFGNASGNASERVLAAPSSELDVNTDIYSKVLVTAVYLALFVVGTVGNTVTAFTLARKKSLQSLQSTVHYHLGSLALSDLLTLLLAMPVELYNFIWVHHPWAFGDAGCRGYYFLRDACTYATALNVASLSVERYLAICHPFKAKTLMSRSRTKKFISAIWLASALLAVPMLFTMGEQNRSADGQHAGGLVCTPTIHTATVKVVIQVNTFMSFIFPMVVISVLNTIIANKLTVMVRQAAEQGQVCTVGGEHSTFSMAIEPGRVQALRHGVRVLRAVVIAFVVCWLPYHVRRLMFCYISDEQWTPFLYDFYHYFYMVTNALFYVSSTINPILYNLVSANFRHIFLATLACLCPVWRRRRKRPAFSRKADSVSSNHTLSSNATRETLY

`COc1cc2nc(C3CC3)nc(N3CCN(Cc4ccc(C)cc4)CC3)c2cc1OC` [Compound 342, 2-cyclopropyl-6,7-dimethoxy-4-(4-(4-methylbenzyl)piperazin-1-yl)quinazoline] was tested, and the Emax was 100%.

Reference: US9868707B2, “Small molecule agonists of neurotensin receptor 1” (SANFORD-BURNHAM MEDICAL RESEARCH INSTITUTE, priority 2012, dated 2018)
